Measurements as given in ChEMBL document CHEMBL5316282, “Small-Molecule Cyanamide Pan-TEAD·YAP1 Covalent Antagonists” (J Med Chem, 2023).
Calls of active or inactive are those of the source. The calls are words filed in the database; no cut-off is given here.

The chains behind the UniProt entries cited, without tags or fusion partners.
UniProt Q15562, whole entry: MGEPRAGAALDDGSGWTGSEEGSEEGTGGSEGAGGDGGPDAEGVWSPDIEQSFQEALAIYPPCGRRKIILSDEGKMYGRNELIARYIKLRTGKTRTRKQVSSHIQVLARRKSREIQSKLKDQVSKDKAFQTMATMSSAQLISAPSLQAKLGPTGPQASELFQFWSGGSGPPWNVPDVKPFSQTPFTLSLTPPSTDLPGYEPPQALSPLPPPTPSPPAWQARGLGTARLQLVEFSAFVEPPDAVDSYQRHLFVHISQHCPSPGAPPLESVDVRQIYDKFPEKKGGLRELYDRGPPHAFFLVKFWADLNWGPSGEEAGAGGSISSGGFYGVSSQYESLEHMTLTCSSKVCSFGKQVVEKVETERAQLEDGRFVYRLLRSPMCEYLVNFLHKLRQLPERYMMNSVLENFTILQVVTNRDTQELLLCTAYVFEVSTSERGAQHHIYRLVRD
UniProt P28347, whole entry: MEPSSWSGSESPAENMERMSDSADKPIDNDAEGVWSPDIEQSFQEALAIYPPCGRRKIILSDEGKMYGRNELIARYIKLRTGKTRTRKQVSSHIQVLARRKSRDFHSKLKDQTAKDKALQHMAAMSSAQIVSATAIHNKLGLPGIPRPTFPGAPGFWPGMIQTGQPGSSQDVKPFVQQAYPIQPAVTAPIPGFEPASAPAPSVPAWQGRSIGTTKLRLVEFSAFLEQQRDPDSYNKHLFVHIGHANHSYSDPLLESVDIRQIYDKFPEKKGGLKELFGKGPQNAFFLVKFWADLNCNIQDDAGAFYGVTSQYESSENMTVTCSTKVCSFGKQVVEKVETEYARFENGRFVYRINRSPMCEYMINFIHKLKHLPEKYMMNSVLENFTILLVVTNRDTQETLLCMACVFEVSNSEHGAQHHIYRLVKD
UniProt Q15561, whole entry: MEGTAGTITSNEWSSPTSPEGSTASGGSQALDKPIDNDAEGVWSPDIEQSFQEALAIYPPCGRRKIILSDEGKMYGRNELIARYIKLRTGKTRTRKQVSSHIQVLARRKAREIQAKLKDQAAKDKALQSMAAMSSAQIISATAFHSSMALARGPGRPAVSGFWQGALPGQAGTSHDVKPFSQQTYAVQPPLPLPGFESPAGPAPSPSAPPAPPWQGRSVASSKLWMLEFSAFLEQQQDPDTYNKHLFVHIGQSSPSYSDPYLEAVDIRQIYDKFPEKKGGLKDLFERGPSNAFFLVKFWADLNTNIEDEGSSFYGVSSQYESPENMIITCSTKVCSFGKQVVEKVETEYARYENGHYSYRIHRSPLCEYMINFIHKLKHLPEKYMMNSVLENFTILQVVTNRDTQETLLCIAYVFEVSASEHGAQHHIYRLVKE
UniProt Q99594, whole entry: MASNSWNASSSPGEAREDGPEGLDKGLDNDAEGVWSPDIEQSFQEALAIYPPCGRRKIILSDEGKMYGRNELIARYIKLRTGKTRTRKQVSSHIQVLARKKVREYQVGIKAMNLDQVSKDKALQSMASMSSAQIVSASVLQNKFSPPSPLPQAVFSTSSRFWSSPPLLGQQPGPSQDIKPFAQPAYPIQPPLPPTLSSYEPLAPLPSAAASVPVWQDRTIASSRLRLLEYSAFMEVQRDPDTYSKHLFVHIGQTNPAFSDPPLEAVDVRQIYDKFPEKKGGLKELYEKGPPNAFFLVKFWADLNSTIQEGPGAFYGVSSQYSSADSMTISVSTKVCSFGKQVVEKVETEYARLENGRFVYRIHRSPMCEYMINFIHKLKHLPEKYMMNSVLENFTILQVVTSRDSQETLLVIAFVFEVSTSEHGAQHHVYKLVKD

What was measured:
[1] = target: T1, Transcriptional enhancer factor TEF-4 (Homo sapiens, UniProt Q15562); test: Binding affinity to human TEAD2 (217 to 447 residues) expressed in Escherichia coli BL21 (DE3) cells assessed as binding constant (K1) incubated for 24 hrs by electrospray ionization mass spectrometry
[2] = target: T2, Transcriptional enhancer factor TEF-1 (Homo sapiens, UniProt P28347); test: Binding affinity to human TEAD1 (209 to 426 residues) expressed in Escherichia coli BL21 (DE3) cells assessed as binding constant (K1) incubated for 24 hrs by electrospray ionization mass spectrometry
[3] = target: T3, Transcriptional enhancer factor TEF-3 (Homo sapiens, UniProt Q15561); test: Binding affinity to GST-tagged human TEAD4 (217 to 434 residues) expressed in Escherichia coli BL21 (DE3) cells assessed as binding constant (K1) incubated for 24 hrs by electrospray ionization mass spectrometry
[4] = target: T4, Transcriptional enhancer factor TEF-5 (Homo sapiens, UniProt Q99594); test: Inhibition of TEAD3 (unknown origin) transfected in human HEK293 cells co-transfected with renilla plasmid assessed as maximum inhibition of transcriptional activity at 10 uM incubated for 24 hrs by dual Glo-luciferase reporter assay relative to control; type: cell-based
[5] = target: T4, Transcriptional enhancer factor TEF-5; test: Irreversible covalent inhibition of human TEAD3 (210 to 427 residues) expressed in Escherichia coli BL21 (DE3) cells assessed as second order rate constant Kinact/K1 at 0.78 to 100 uM incubated for 24 hrs by electrospray ionization mass spectrometry; conditions: dose 0.78-100 µM
[6] = target: T3, Transcriptional enhancer factor TEF-3; test: Irreversible covalent inhibition of GST-tagged human TEAD4 (217 to 434 residues) expressed in Escherichia coli BL21 (DE3) cells assessed as second order rate constant Kinact/K1 at 0.78 to 100 uM incubated for 24 hrs by electrospray ionization mass spectrometry; conditions: dose 0.78-100 µM
[7] = target: T2, Transcriptional enhancer factor TEF-1; test: Irreversible covalent inhibition of human TEAD1 (209 to 426 residues) expressed in Escherichia coli BL21 (DE3) cells assessed as second order rate constant Kinact/K1 at 0.78 to 100 uM incubated for 24 hrs by electrospray ionization mass spectrometry; conditions: dose 0.78-100 µM
[8] = target: T4, Transcriptional enhancer factor TEF-5; test: Binding affinity to human TEAD3 (210 to 427 residues) expressed in Escherichia coli BL21 (DE3) cells assessed as binding constant (K1) incubated for 24 hrs by electrospray ionization mass spectrometry
[9] = target: T1, Transcriptional enhancer factor TEF-4; test: Irreversible covalent inhibition of human TEAD2 (217 to 447 residues) expressed in Escherichia coli BL21 (DE3) cells assessed as second order rate constant Kinact/K1 at 0.78 to 100 uM incubated for 24 hrs by electrospray ionization mass spectrometry; conditions: dose 0.78-100 µM
[10] = target: T4, Transcriptional enhancer factor TEF-5; test: Inhibition of TEAD3 (unknown origin) transfected in human HEK293 cells co-transfected with renilla plasmid assessed as maximum inhibition of transcriptional activity at 0.1 to 10 uM incubated for 24 hrs by dual Glo-luciferase reporter assay relative to control; type: cell-based; conditions: dose 0.1-10 µM

K [1] | K [2] [µM] | K [3] | inhibition [4] | K [5] [M⁻¹ s⁻¹] | K [6] [M⁻¹ s⁻¹] | K [7] | K [8] | K [9] [M⁻¹ s⁻¹] | Imax [10] [%] | Structure (SMILES)
24.8 µM | 3.3 | 8.2 µM | 50% | 29.4 | 189 | 3.5 M⁻¹ s⁻¹ | 18 µM | 142 |  | COc1ccc2c(c1Nc1cccc(C(F)(F)F)c1)CN(C#N)C2
inactive | > 100 | inactive |  | 1.7 | 1.1 | inactive | inactive | 3.3 |  | N#CN1CC2CCCC(Nc3ccc(C(F)(F)F)cc3)C2C1 (stereo not given)
11.8 µM | 4.4 | 4.7 µM |  | 241 | 8.2 | 538 M⁻¹ s⁻¹ | 9.4 µM | 141 |  | N#CN1Cc2cccc(Nc3ccc(C(F)(F)F)cc3)c2C1
inactive | 27.6 | 15.9 µM | 80% | 68.9 | 189 | 57.4 M⁻¹ s⁻¹ | 35.1 µM | 158 | 61.5 | N#CN1Cc2cccc(Nc3cccc(C(F)(F)F)c3)c2C1
95 µM | 38 | 231 µM |  | 0.2 | 0.1 | 0.3 M⁻¹ s⁻¹ | 183 µM | 1 | 38.2 | N#CN1CC2CCCC(Nc3cccc(C(F)(F)F)c3)C2C1 (stereo not given)
140 µM |  | 167 µM |  |  | 0.1 |  |  | 0.9 |  | N#CN1CC2CCCC(Nc3ccccc3C(F)(F)F)C2C1 (stereo not given)
53.3 µM | 10.9 | 29.7 µM |  | 7.9 | 3.9 | 14.4 M⁻¹ s⁻¹ | 55 µM | 45.3 |  | N#CN1Cc2cccc(Nc3ccccc3C(F)(F)F)c2C1
inactive | 21.4 | inactive | Active | 165 | 400 | 148 M⁻¹ s⁻¹ | 36.9 µM | 197 |  | N#CN1Cc2ccc(F)c(Nc3cccc(C(F)(F)F)c3)c2C1
